The data set can be described thus: Pharmacokinetics and bioavailability in guinea pigs. In kind it is in vivo. Conditions: guinea pig, plasma, po.
[1] abbreviates: Co-admin of L335M34 (50 mg/kg) and L01Z08 (20 mg/kg).
Where [2] appears, read: Single, L335M34 50 mg/kg, L01Z08 20 mg/kg.

On to `Cc1c(Br)cc(NC(=O)CS(=O)(=O)O)cc1Br`, for which the half-life reads like this: under setting [1], 4.16 h; under setting [2], 5.2 h.

With `O=C(O)c1cc2c(C#Cc3cccc(C(F)(F)F)c3)c(-c3ccccc3)oc2cc1O` [Compound L01Z08], the half-life runs as follows: under setting [1], 6.14 h; under setting [2], 5.51 h.

The values are drawn from patent US10494332B2, “Protein tyrosine phosphatases or SHP2 inhibitors and uses thereof” (Indiana University Research and Technology Corporation, priority 2015, dated 2019).
